Laboratory results reported in US10092657B2, “Opsonized β-glucan preparations and methods” (Biothera, Inc., priority 2011, dated 2018).

Legend:
human neutrophils = test: Binding studies on the role of complement proteins in serum, neutrophils; format: cell-based; conditions: compstatin/control peptide 20 or 100 μM; methylamine 0.67%; 166-32 20 μg/mL; HSA 10%
Experimental: (§1) To determine the role of complement proteins in binding, experiments were performed as described above except for using serum containing 10% HI, compstatin-treated or methylamine (MA)-treated, EGTA- or EGTA+MgCl2 (MgEGTA)-treated, or factor D-blocked serum. Heat-inactivated (HI) serum was prepared by incubating serum in a 56° C. water bath for 30 minutes. […] Treatment of serum with methylamine (MA) was done by incubating serum with 0.67% of methylamine for 2.5 hours at 37° C., followed by three washes with DPBS using Amicon centrifugal filter unit with a 3K MW cut-off (Millipore, Billerica, Mass.). DPBS-treated serum was prepared in the same manner and used as control serum for MA-treated serum. For blocking of factor D in the serum, 166-32 at concentration 20 μg/mL was incubated with serum on ice for 30 minutes, and then used for binding studies. For binding experiments in the presence of EGTA or MgEGTA, serum was incubated with 10 mM EGTA with or without 10 mM MgCl2 for 10 minutes at room temperature. The untreated and EGTA/MgEGTA-treated serum was then used to pre-treat PGG and perform binding studies as described earlier.

human monocytes = test: Binding studies on the role of complement proteins in serum, monocytes; format: cell-based; conditions: compstatin/control peptide 20 or 100 μM; methylamine 0.67%; 166-32 20 μg/mL; HSA 10%
Experimental: as §1

HSA: human serum albumin, non-specific serum protein control
Effect of the agent added to serum or media on binding of PGG β-glucan (human neutrophils): did not restore soluble β-glucan binding to cells | Effect of the agent added to serum or media on binding of PGG β-glucan (human monocytes): did not restore soluble β-glucan binding to cells
